Experiment: Henry solubility constant Hcp at 293 K (mol/(m3 Pa))
Conditions: reference: Pearson and McConnell (1975)

CCl [chloromethane]
Henry solubility constant Hcp at 293 K: 0.0014

— Sander's compilation of Henry's law constants (doi:10.1098/rspb.1975.0059)
